Results from PMC4848510, “Foldamer-mediated manipulation of a pre-amyloid toxin” (Nature Communications, 2016).

Molecular target: T1, IAPP (Homo sapiens, UniProt P10997)
T1 construct: IAPP is a 37-residue peptide co-packaged with insulin in pancreatic β-cells; purchased Genscript; Elim Biopharmaceuticals
T1 sequence (P10997 34-70 limits assumed): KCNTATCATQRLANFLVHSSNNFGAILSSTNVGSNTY
Assay: LUV-catalysed IAPP fibre formation kinetic assay (ThT fluorescence)
Type: biochemical
Conditions: 10 μM IAPP, 630 μM LUVs DOPG:DOPC 1:1, 100 nm, at least triplicate, ±1 s.d.
Method: Unless otherwise stated, LUVs used in this work were prepared from a 1:1 mixture of DOPG/DOPC. The lyophilized mixture was hydrated in 100 mM KCl, 50 mM sodium phosphate and pH 7.4 for 20 min. A 20mg ml^−1 solution of lipid in buffer was passed 21 times through a polycarbonate membrane (pore diameter=100 nm). The phospholipid content of the final material was measured using a total phosphorous assay.
Amyloid reactions were conducted in buffer containing liposome (630 μM lipid) and 20 μM ThT in a black 96-well plate. This was followed by the addition of small molecule dissolved in dimethylsulphoxide (DMSO; final DMSO concentration=0.5%, v/v). Fibre formation was initiated by the addition of IAPP stock solution. The final volume in each well was 200 μl. Kinetics of fibrillation was monitored by ThT fluorescence (excitation 450 nm and emission 485 nm), using a FluoDia T70 fluorescence plate reader (Photon Technology International, Edison, NJ, USA). The data were blank subtracted and renormalized to the maximum intensity of reactions containing only IAPP. Each kinetic trace was fit to a sigmoidal form:
where I is the fluorescence intensity, t is time, and b, m and τ are dependent fitting variables. All samples were run at least in triplicate and error bars shown in the text represent ±1 s.d.

Which “reaction midpoint t50 of IAPP fibre formation with LUVs” value does the source give for `CC[C@H](C)[C@H](NC(=O)[C@H](C)NC(=O)CNC(=O)[C@H](Cc1ccccc1)NC(=O)[C@H](CC(N)=O)NC(=O)[C@H](CC(N)=O)NC(=O)[C@H](CO)NC(=O)[C@H](CO)NC(=O)[C@H](Cc1c[nH]cn1)NC(=O)[C@@H](NC(=O)[C@H](CC(C)C)NC(=O)[C@H](Cc1ccccc1)NC(=O)[C@H](CC(N)=O)NC(=O)[C@H](C)NC(=O)[C@H](CC(C)C)NC(=O)[C@H](CCCNC(=N)N)NC(=O)[C@H](CCC(N)=O)NC(=O)[C@@H](NC(=O)[C@H](C)NC(=O)[C@@H]1CSSC[C@H](NC(=O)[C@@H](N)CCCCN)C(=O)N[C@@H](CC(N)=O)C(=O)N[C@@H]([C@@H](C)O)C(=O)N[C@@H](C)C(=O)N[C@@H]([C@@H](C)O)C(=O)N1)[C@@H](C)O)C(C)C)C(=O)N[C@@H](CC(C)C)C(=O)N[C@@H](CO)C(=O)N[C@@H](CO)C(=O)N[C@H](C(=O)N[C@@H](CC(N)=O)C(=O)N[C@H](C(=O)NCC(=O)N[C@@H](CO)C(=O)N[C@@H](CC(N)=O)C(=O)N[C@H](C(=O)N[C@@H](Cc1ccc(O)cc1)C(N)=O)[C@@H](C)O)C(C)C)[C@@H](C)O` [IAPP] here?
The value was 1.1 ± 0.1 h.
